Assay results published in PubChem BioAssay AID485360 (National Center for Advancing Translational Sciences (NCATS), 2010).
The entries are a selection whose mix differs from that of the whole data set. Inconclusive results are not listed. Calls of active or inactive are those of the source. Calls follow the shape of the dose curve; as a rule, active = well fitted inhibition curve with a large enough effect; inconclusive = small, poorly fitted or top-dose-only effect; inactive = no such curve, though single readings can be large or run the other way.

Sequences of proteins named here, by UniProt entry; tags and fusion partners are left off.
UniProt Q9Y468, whole entry: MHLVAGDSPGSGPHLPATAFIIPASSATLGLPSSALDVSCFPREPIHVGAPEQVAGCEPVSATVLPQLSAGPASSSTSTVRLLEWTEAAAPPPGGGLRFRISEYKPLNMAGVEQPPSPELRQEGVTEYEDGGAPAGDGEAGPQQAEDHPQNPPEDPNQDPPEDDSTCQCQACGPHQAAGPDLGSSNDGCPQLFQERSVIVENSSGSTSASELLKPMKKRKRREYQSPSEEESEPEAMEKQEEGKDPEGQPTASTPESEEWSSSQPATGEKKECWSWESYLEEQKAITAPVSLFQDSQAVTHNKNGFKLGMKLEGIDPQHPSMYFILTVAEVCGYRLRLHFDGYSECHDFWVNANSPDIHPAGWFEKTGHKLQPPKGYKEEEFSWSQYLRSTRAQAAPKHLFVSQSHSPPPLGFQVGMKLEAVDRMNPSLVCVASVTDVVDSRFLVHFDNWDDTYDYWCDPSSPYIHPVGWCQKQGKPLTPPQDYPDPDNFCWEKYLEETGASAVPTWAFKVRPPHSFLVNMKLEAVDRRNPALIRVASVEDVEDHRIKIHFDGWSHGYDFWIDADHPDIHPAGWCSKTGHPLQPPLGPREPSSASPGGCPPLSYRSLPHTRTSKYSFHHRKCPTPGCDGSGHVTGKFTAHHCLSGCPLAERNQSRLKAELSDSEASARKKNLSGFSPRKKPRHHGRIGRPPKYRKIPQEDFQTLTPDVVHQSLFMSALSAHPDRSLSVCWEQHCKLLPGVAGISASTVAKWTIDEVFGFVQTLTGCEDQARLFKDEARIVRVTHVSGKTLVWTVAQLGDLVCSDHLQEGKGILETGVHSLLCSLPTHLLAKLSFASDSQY

Biological target: Lethal(3)malignant brain tumor-like protein 1 (Homo sapiens) (UniProt Q9Y468)
Assay: qHTS Assay for the Inhibitors of L3MBTL1; also: nearly all actives have a fitted effect of over 60% in size
Settings: AlphaScreen L3MBTL1–H3K9me1 peptide binding; at 57.1 µM (top of the series)
% is scaled to controls: 0 for no effect and ±100 for the full control effect.

Row | Compound | activity, negative = inhibition
1 | CCOC(=O)c1ccc(NP(C)(=O)Oc2ccc(OC)cc2)cc1 (stereo not drawn) | inactive: -2.48%
2 | CCOP(C)(=S)SCC(=O)NC(C)C(=O)O (stereo not drawn) | inactive: -12.8%
3 | Cc1cc(C)cc(OP(C)(=O)Nc2ccc(SC(F)(F)F)cc2)c1 (stereo not drawn) | inactive: 5.57%
4 | CP(=O)(NC(=O)Nc1ccccc1)Oc1ccccc1 (stereo not drawn) | inactive: -6.62%
5 | CP(=O)(Oc1ccccc1)OC(c1ccccc1)C(F)(F)F (stereo not drawn) | inactive: 25.2%
6 | Cc1cccc(C)c1OP(C)(=O)Nc1ccc(SC(F)(F)F)cc1 (stereo not drawn) | inactive: 10.3%
7 | CP(=O)(Nc1ccccc1Br)Oc1ccccc1 (stereo not drawn) | inactive: -1.31%
8 | CP(=S)(Nn1cnnc1)Oc1ccccc1 (stereo not drawn) | inactive: -3.96%
9 | Cc1cc(C)cc(OP(C)(N)=O)c1 (stereo not drawn) | inactive: -11.7%
10 | COc1ccccc1OP(C)(=O)Nc1cc(Cl)ccc1C (stereo not drawn) | inactive: 2.72%
11 | COc1ccccc1OP(C)(=O)Nc1ccc(C)cc1 (stereo not drawn) | inactive: -5.51%
12 | CCOC(=O)c1ccc(NP(C)(=O)Oc2ccccc2)cc1 (stereo not drawn) | inactive: -1.1%
13 | Cc1cccc(C)c1OP(C)(N)=O (stereo not drawn) | inactive: 14.3%
14 | CC(C)(C)c1ccc(OP(C)(=O)Nc2ccc(SC(F)(F)F)cc2)cc1 (stereo not drawn) | inactive: -0.696%
15 | COc1cc(C(=O)NCC2(N3CCOCC3)CCCCC2)ccc1OCC(C)C | inactive: 1.16%
16 | O=[N+]([O-])c1cc([N+](=O)[O-])c(Nc2cccnc2)c([N+](=O)[O-])c1 | inactive: -9.97%
17 | CCN(CC)CCCOC(=O)C(O)(c1ccccc1)c1ccccc1 | inactive: -17.4%
18 | CP(=O)(Nc1cccc(Br)c1)Oc1ccccc1 (stereo not drawn) | inactive: -26.1%
19 | CCOC(=O)c1ccc(NP(C)(=O)Oc2cc(C)cc(C)c2)cc1 (stereo not drawn) | inactive: 2.38%
20 | COc1cc(C(=O)NCC2(N3CCOCC3)CCCCC2)cc(Cl)c1OC(C)C | inactive: 13.3%
21 | CC1=NCCc2c1[nH]c1ccccc21.O=[N+]([O-])c1cc([N+](=O)[O-])c(O)c([N+](=O)[O-])c1 | inactive: -1.34%

Row | Compound | activity, negative = inhibition
22 | CCCOc1ccc(NP(C)(=O)Oc2ccc(Cl)cc2)cc1 (stereo not drawn) | inactive: -10.3%
23 | CP(=O)(Nc1ccc(SC(F)(F)F)cc1)Oc1ccccc1 (stereo not drawn) | inactive: 7.28%
24 | COc1ccccc1OP(C)(=O)Nc1c(C)cccc1C (stereo not drawn) | inactive: 5.18%
25 | CN1CCCCC1COC(=O)C1(O)c2ccccc2CCc2ccccc21 (stereo not drawn) | inactive: -7.45%
26 | CN(C)C1(CNC(=O)c2ccc(S(C)(=O)=O)cc2)CCCCC1 | inactive: 8%
27 | Cc1nc2ccc3ccccc3c2s1.O=[N+]([O-])c1cc([N+](=O)[O-])c(O)c([N+](=O)[O-])c1 | inactive: 7.74%
28 | O=[N+]([O-])c1cc([N+](=O)[O-])c(-n2nnc3ccccc32)c([N+](=O)[O-])c1 | inactive: 2.23%
29 | Cc1ccccc1NP(C)(=O)Nc1ccccc1C | inactive: -3.19%
30 | CP(=O)(Nc1ccc2c(c1)OCCO2)Oc1ccccc1 (stereo not drawn) | inactive: 1.66%
31 | CCOP(C)(=S)SCC(=O)NC(C)(CC)C(=O)O (stereo not drawn) | inactive: 6.79%
32 | CP(=O)(Nc1ccc(SC(F)(F)F)cc1)Oc1ccc(F)cc1 (stereo not drawn) | inactive: 1.12%
33 | O=[N+]([O-])c1ccc(OP2(=O)COCCO2)cc1 (stereo not drawn) | inactive: 4.98%
34 | Cc1cc(-c2cccc3ccccc23)c(C)cn1.O=[N+]([O-])c1cc([N+](=O)[O-])c(O)c([N+](=O)[O-])c1 | inactive: 13.7%
35 | CN(C)CCOC(=O)C(O)(c1ccccc1)C1CCCCC1 (stereo not drawn) | inactive: 10.9%
36 | COc1ccc(OP(C)(=O)Nc2cccc(Br)c2)cc1 (stereo not drawn) | inactive: 2.82%
37 | CP(=O)(Nc1ccccc1)Oc1ccc(F)cc1 (stereo not drawn) | inactive: -0.533%
38 | CCCCCOc1ccc(NP(C)(=O)Oc2ccc(Cl)cc2Cl)cc1 (stereo not drawn) | inactive: -14.1%
39 | CCN(CC)CCCOC(=O)C(O)(c1ccccc1)C1CCCCC1 (stereo not drawn) | inactive: -1.98%
40 | CCOC(=O)c1ccc(NP(C)(=O)Oc2ccc(F)cc2)cc1 (stereo not drawn) | inactive: -4.61%
41 | COc1ccc(OP(C)(=O)Nc2ccc(SC(F)(F)F)cc2)cc1 (stereo not drawn) | inactive: 7.74%
42 | O=C(OCCN1CCN(CCOCc2ccccc2)CC1)C(O)(c1ccccc1)c1ccccc1 | inactive: 11.8%

Row | Compound | activity, negative = inhibition
43 | CP(=O)(Nc1ccccc1F)Oc1ccccc1 (stereo not drawn) | inactive: 5.33%
44 | CC(C)c1ccc(OP(C)(=O)Nc2ccc(SC(F)(F)F)cc2)cc1 (stereo not drawn) | inactive: 7.82%
45 | COc1ccccc1OP(C)(=O)Nc1ccc(C)cc1C (stereo not drawn) | inactive: -3.55%
46 | CP(=O)(Nc1ccccn1)Oc1ccccc1 (stereo not drawn) | inactive: -7.47%
47 | CCc1ccc(OP(C)(=O)O)cc1 | inactive: -12.9%
48 | Cc1c(NP(C)(=O)Oc2ccc(C(C)C)cc2)c(=O)n(-c2ccccc2)n1C (stereo not drawn) | inactive: 7.67%
49 | O=[N+]([O-])c1cc([N+](=O)[O-])c(Nc2ccccn2)c([N+](=O)[O-])c1 | inactive: -24.4%
50 | CP(=O)(Nc1ccc(Cl)cc1Cl)Oc1ccccc1 (stereo not drawn) | inactive: 16.8%
51 | CP(=O)(OCCOc1ccccc1)OCCOc1ccccc1 | inactive: 12.2%
52 | Cc1nc2ccc3ccccc3c2o1.O=[N+]([O-])c1cc([N+](=O)[O-])c(O)c([N+](=O)[O-])c1 | inactive: -6.54%
53 | COc1ccccc1OP(C)(=O)Nc1ccc(C)c(C)c1 (stereo not drawn) | inactive: 0.857%
54 | COc1ccc(OP(C)(=O)Nc2ccccc2Br)cc1 (stereo not drawn) | inactive: 2.9%
55 | Cc1cc(C)cc(OP(C)(=O)Nc2cccc(C(F)(F)F)c2)c1 (stereo not drawn) | inactive: -2.01%
56 | CCOC(=O)c1ccc(NP(C)(=O)Oc2ccc(Cl)cc2)cc1 (stereo not drawn) | inactive: 2.06%
57 | CP(=O)(Nc1ccc(Cl)cc1)Oc1ccc(F)cc1 (stereo not drawn) | inactive: 4.87%
58 | O=C(OCCCN1CCCC1)C(O)(c1ccccc1)C1CCCCC1 (stereo not drawn) | inactive: -63.5%
59 | COc1ccccc1OP(C)(=O)Nc1c(C)n(C)n(-c2ccccc2)c1=O (stereo not drawn) | inactive: 11.4%
60 | CCc1ccc(OP(C)(=O)Nc2cccnc2)cc1 (stereo not drawn) | inactive: 6.46%
61 | CP(=O)(Oc1ccccc1)N1CCOC1=O (stereo not drawn) | inactive: 2.79%
62 | COc1ccc(OP(C)(=O)Nc2ccc(Br)cc2)cc1 (stereo not drawn) | inactive: -3.01%
63 | CCN(CC)CC(O)COC(=O)C(O)(c1ccccc1)C1CCCCC1 (stereo not drawn) | inactive: 0.655%
